Literature values, collected in paper PMC11390726, “Automated design of multi-target ligands by generative deep learning” (Nature Communications, 2024).

Target: AT1 (Homo sapiens, UniProt P30556)
Conditions: read-out: potency on target (IC50 for AT1); fine-tuning set; BindingDB; cited from earlier work

For CCCCc1nc(Cl)c(C(=O)O)n1Cc1ccc(-c2ccccc2-c2noc(=O)[nH]2)cc1, the IC50 is listed as 2 nM.
